The structures appear in SMILES notation.

In this experiment the test system is EGFR Q787Q A/A cell lines. The experiment can be described thus: Response to gefitinib of EGFR Q787Q G/G (WT) and A/A cell lines. In kind it is cell-based. Particulars: cell lines with EGFR SNP Q787Q A/A.

For `COc1cc2ncnc(Nc3ccc(F)c(Cl)c3)c2cc1OCCCN1CCOCC1` [gefitinib], the response to gefitinib entry is reported as “sensitive to epidermal growth factor receptor tyrosine kinase inhibitors”.

The values are drawn from patent US12642838B2, “Method of modulating sensitivity to tyrosine kinase inhibitor” (SINGAPORE HEALTH SERVICES PTE LTD, priority 2020, dated 2026).
